How the values were obtained:
[1] = system: Muscarinic acetylcholine receptors M2 & M3 (Cavia porcellus); assay: Selectivity ratio between atrium (M2) and ileum (M3) was determined
[2] = target: Muscarinic acetylcholine receptor M1 (Rattus norvegicus, UniProt P08482); assay: Affinity constant measured against M1 muscarinic receptor in rat cortex

Amino acid sequences for entries named in this document (tags omitted). A change or cut given only in a name is not applied to a line headed by its entry.
UniProt P08482: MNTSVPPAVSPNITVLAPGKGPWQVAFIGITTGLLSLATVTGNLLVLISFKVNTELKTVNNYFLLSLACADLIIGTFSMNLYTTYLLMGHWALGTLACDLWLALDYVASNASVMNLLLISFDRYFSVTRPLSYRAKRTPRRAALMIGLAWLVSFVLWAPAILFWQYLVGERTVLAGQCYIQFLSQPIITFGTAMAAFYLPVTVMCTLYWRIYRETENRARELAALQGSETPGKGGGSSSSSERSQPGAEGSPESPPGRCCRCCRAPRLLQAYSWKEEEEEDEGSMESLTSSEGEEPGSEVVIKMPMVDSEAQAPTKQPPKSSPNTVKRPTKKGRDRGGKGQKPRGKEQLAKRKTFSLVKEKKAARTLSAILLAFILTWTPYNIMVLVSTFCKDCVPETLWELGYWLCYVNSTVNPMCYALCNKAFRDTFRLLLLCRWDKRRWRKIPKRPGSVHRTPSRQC

Row | Compound | Selectivity ratio [1] | Ki [2] [nM]
1 | CN(CCCCCCCCN(C)CCCCCCNCC(=O)N1c2ccccc2C(=O)Nc2cccnc21)CCCCCCNCC(=O)N1c2ccccc2C(=O)Nc2cccnc21 | 174 | 
2 | COc1ccccc1CNCCCCCCNCCCCCCCCNCCCCCCNCc1ccccc1OC [METHOCTRAMINE] |  | 37.2
